# An excerpt weighted towards active compounds, which were near 1.3% of everything screened.
# PglD inh = C. jejuni PglD acetyltransferase inhibitors, primary screen, biochemical, DTNB colorimetric, single point. 360,000 tested, 0.098% active. purified PglD enzyme, DTNB colorimetric CoA detection. UDP-N-acetylbacillosamine N-acetyltransferase PglD (Campylobacter jejuni). AID 602405, 2012. inhibition, % at 12.5 µM; in the data active means inhibition above about 16%, passing the limit was not always enough; inconclusive means no clear call, values can overlap the other calls
# miR-122 sensor = miR-122 Renilla sensor signal increase in Huh7, primary screen, miR-122 inhibitor project, cell-based, single point, plate reader; AID 602342, 2012; Huh7 miR-122 Renilla luciferase sensor, 48 h; neutral wells = 0, positive control = 100; 340,000 tested, 0.3% active; activation (reporter increase), % at 12.5 µM;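 active means mean replicate activation score at least 90 and every replicate individually at or above 90; inconclusive means only one of the two criteria met; inactive means neither criterion met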;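 further: higher luciferase means less miR-122 activity so hits act as miR-122 inhibitors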
# F508del corr = F508del CFTR correction, initial screen, CFBE line, single point | activity (quench increase), % at 7.58 µM | CFBE cells, YFP halide quenching; stimulated with forskolin plus potentiator P3; % fluorescence drop versus neutral controls | 350,000 tested, 0.36% active;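 active means mean added fluorescence quench of at least 8% versus neutral control, with both replicates also reaching 8%; inconclusive means only one of the mean or replicate conditions met; inactive means mean below 8% and not both replicates reaching 8%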;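 further: cells transiently co-express mutant CFTR-F508del with the halide-sensitive YFP; corrector assay measuring rescue of mutant channel to the surface after 24 h compound exposure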
# EWS-Fli inh = EWS/Fli-driven NR0B1 reporter inhibitors, primary screen, A673 cells, NR0B1 luciferase, luminescence, MLPCN library | inhibition, % at 12.6 µM | viability-normalised | 350,000 tested, 0.67% active;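 active means mean inhibition of at least 50% after viability correction, with every replicate also passing that limit; inconclusive means mean reaches 50% but only one of two replicates passes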;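 further: firefly luciferase signal divided by Alamar Blue viability fluorescence both relative to DMSO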
# Yeast UUG start = yeast start codon fidelity modulation | S. cerevisiae UUG-firefly luciferase reporter, luminescence/redox ratio | activity score, % at 18.7 µM | 0.13% of 350,000 active | AID 602363;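 active means replicate mean at a twofold rise or more, about +100% in these data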;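 further: firefly luciferase made from a UUG start codon reports start codon fidelity; reporter light over untreated wells divided by growth signal over untreated wells; some hits fall short of that in this replicate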
# LGR2 inh = inhibitors of bursicon-induced LGR2 CRE-luciferase signal, primary screen, cell-based, HEK293, CRE-luciferase reporter, bursicon stimulation. 380,000 tested, 0.35% active. Drosophila bursicon receptor LGR2 (rickets). AID 720647, 2013. inhibition, % at 9.99 µM. bursicon-stimulated, 4 h;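 active means drop in luminescence signal, shown as inhibition above about 50% in the replicate tests, limit read from the data, passing the limit was not always enough; inconclusive means probably only some replicates passing the limit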;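 further: agonist challenge used bursicon conditioned medium at about half maximal strength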
# DNA binding = DNA binders by acridine orange displacement, dose response, counter-screen for EWS/Fli inhibitor project, biochemical, fluorescence polarization, cherry-pick. AC35, µM (top dose mostly 68 µM), inactives show top-dose activity change, negative = DNA binding. shares compounds with EWS-Fli inh. salmon sperm DNA acridine orange fluorescence polarization. 640 tested, 2% active;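 active means fitted curve reaches a 35% signal fall AC35 below twice the sample's top valid tested dose, actives reach about 48 µM in these data; inactive means the rest, including activity in the rising direction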;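 further: lower polarization ratio signals compound binding to DNA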
# The depositor's hits bear a star; ? = inconclusive; / = not tested or not shown; [ ] = remark or other dose.
# Order of results – PglD inh	Yeast UUG start	LGR2 inh	EWS-Fli inh	DNA binding	F508del corr	miR-122 sensor
[1] Cc1ccc(NC(=O)COC(=O)c2ccc3c(c2)OCO3)cc1S(=O)(=O)N1CCCCC1
→ /	/	11.6	71.9*	-5.1%	/	/
[2] Cc1ccc(NC(=O)COC(=O)c2ccc(OC(F)F)cc2)cc1S(=O)(=O)N1CCCCC1
→ -0.3	-15.2	-7.5	2.7	/	0.4	/
[3] Cc1cc(S(=O)(=O)N2CCC3(CC2)OCCO3)c(C)cc1Cl
→ -5.3	-9.8	5.5	6.2	/	-1.5	/
[4] C[C@H](CO)N1C[C@H](C)[C@H](CN(C)Cc2ccc(Oc3ccccc3)cc2)Oc2ccc(NC(=O)Cn3cnnn3)cc2CC1=O
→ 3.3	3.2	-0.6	54.5*	-1.2%	-1.2	-11.6[16.7 µM]
[5] C[C@H](CO)N1C[C@H](C)[C@@H](CN(C)Cc2ccc(Oc3ccccc3)cc2)Oc2ccc(NC(=O)Cn3cnnn3)cc2CC1=O
→ 0.2	18.4	11.6	3.2	/	1.5	1.5[16.7 µM]
[6] C[C@@H]1CN([C@@H](C)CO)C(=O)Cc2cc(NC(=O)Cn3cnnn3)ccc2O[C@@H]1CN(C)Cc1ccc(Oc2ccccc2)cc1
→ 0.5	10.6	5.3	70.4*	-2.2%	-1.9	-4.3[16.7 µM]
[7] CC(Oc1cccc(Cl)c1)C(=O)NCCCCc1ccccc1 (configuration not stated)
→ /	/	-19.2	87.4*	1.0%	/	/
[8] C=CCOc1ccc(C(=O)/C=C2/C(=O)Nc3ccccc32)cc1
→ -3.7	-11.7	-0.4	5.0	/	0.9	2.2
[9] C=CCOc1ccccc1C(=O)/C=C1/C(=O)Nc2ccccc21
→ -4.5	0.3	6.7	57.8*	-4.5%	0.9	9.8
[10] Cc1ccc(NC(=O)c2ccc(Cl)c(N3C(=O)CCC3=O)c2)cc1
→ -2.7	7.1	-0.3	-4.3	/	-0.8	-10.3
[11] Nc1cc2c(cc1Br)[nH]c(=O)c1ccccc12
→ /	/	/	52.2*	-2.3%	1.4	13.2
[12] CN(C)C(=O)[C@@H]1[C@@H](CO)[C@@H]2Cn3c(ccc(-c4cccc(F)c4)c3=O)[C@H]1N2CC1CC1
→ 2.8	/	-13.5	-8.9	/	-1.5	2.0[16.7 µM]
[13] COc1ccc(/C=C2\Oc3ccccc3C2=O)cc1
→ -1.7	-41.6	55.6*	62.1*	-2.0%	1.0	3.3
[14] CC(=O)Oc1ccc(/C=C2/Oc3ccccc3C2=O)cc1
→ -3.6	-5.1	-46.4	-6.8	/	1.4	-0.9
[15] CCOC(=O)c1sc(NC(=O)COC(=O)CNC(=O)c2ccco2)c(C(=O)OCC)c1C
→ /	/	-8.6	1.2	/	/	/
[16] O=C(Nc1nc(-c2ccc(F)c(F)c2)cs1)c1ccc(OCC2CCCO2)cc1 (configuration not stated)
→ /	/	6.7	73.9*	-6.0%	/	/
[17] Cc1csc(NC(=O)c2ccc(OCC3CCCO3)cc2)n1 (configuration not stated)
→ -6.7	-42.1	?	32.5	/	2.1	-4.7
[18] CCc1cccc2c(C(=O)CN3C(=O)NC4(CCCCC4)C3=O)c[nH]c12
→ -0.3	0.6	-3.5	51.5*	8.9%	4.9	115.4*
[19] CCc1cccc2c(C(=O)CN3C(=O)NC4(CCCCCC4)C3=O)c[nH]c12
→ -0.6	3.6	-16.2	45.1	/	1.8	42.4
[20] COc1cc2c(OC(C)=O)c3c(c(-c4ccc5c(c4)OCO5)c2cc1OC)C(=O)OC3
→ 2.7	-24.7	/	65.3*	-11.2%	-11.2	-0.2
[21] COc1ccc(/C=C2\SC(=S)N(CCCC(=O)Nc3ccc(O)cc3)C2=O)cc1
→ -0.6	-17.3	-45.0	60.7*	-10.6%	-0.3	4.6
[22] COc1ccc(/C=C2/SC(=S)N(CCCC(=O)Nc3ccc(O)cc3)C2=O)cc1
→ -15.7	-11.5	-31.9	21.7	/	-4.0	3.9
[23] CN=c1scc(-c2ccco2)n1/N=C/c1ccc(O)c(O)c1
→ /	/	-3.0	15.1	/	0.2	/
[24] CC(C)N=c1scc(-c2cccs2)n1/N=C/c1ccc(O)c(O)c1O
→ /	/	-37.3	/	/	/	/

# Gathered by group, the compounds so far with four or more nitrogen atoms
# Order of results – PglD inh	Yeast UUG start	LGR2 inh	EWS-Fli inh	DNA binding	F508del corr	miR-122 sensor
[4] C[C@H](CO)N1C[C@H](C)[C@H](CN(C)Cc2ccc(Oc3ccccc3)cc2)Oc2ccc(NC(=O)Cn3cnnn3)cc2CC1=O
→ 3.3	3.2	-0.6	54.5*	-1.2%	-1.2	-11.6[16.7 µM]
[5] C[C@H](CO)N1C[C@H](C)[C@@H](CN(C)Cc2ccc(Oc3ccccc3)cc2)Oc2ccc(NC(=O)Cn3cnnn3)cc2CC1=O
→ 0.2	18.4	11.6	3.2	/	1.5	1.5[16.7 µM]
[6] C[C@@H]1CN([C@@H](C)CO)C(=O)Cc2cc(NC(=O)Cn3cnnn3)ccc2O[C@@H]1CN(C)Cc1ccc(Oc2ccccc2)cc1
→ 0.5	10.6	5.3	70.4*	-2.2%	-1.9	-4.3[16.7 µM]

# Compound activity (PubChem BioAssay)
